Amino acid sequences for entries named in this document (tags omitted).
UniProt P61169, whole entry: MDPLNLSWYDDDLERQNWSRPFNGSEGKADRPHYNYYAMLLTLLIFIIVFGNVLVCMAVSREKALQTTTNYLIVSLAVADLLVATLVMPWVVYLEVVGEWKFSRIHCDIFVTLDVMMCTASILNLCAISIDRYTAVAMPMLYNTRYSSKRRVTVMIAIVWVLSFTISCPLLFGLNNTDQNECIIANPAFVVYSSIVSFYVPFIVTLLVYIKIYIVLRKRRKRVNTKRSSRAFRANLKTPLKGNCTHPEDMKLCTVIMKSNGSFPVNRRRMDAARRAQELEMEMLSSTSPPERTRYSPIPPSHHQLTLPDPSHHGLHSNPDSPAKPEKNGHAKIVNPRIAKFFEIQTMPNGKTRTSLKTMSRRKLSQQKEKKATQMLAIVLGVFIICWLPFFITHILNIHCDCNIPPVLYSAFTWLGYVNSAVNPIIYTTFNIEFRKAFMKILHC

According to ChEMBL document CHEMBL1127372, “The discovery and structure-activity relationships of 1,2,3,6-tetrahydro-4-phenyl-1-[(arylcyclohexenyl)alkyl]pyridines. Dopamine autoreceptor agonists and potential antipsychotic agents” (J Med Chem, 1994):

Target: D(2) dopamine receptor (Rattus norvegicus, UniProt P61169)
Test: Tested for binding affinity towards rat striatal D2 receptor using [3H]NPA as radioligand

Compound: CN1CCc2cccc3c2[C@H]1Cc1ccc(O)c(O)c1-3 [APOMORPHINE]
- Ki: 2.2 nM
